Results as given in article PMC4306921 (Scientific Reports, 2015).

By UniProt entry, the sequences of proteins in these tests, tags left out.
UniProt P08908, whole entry: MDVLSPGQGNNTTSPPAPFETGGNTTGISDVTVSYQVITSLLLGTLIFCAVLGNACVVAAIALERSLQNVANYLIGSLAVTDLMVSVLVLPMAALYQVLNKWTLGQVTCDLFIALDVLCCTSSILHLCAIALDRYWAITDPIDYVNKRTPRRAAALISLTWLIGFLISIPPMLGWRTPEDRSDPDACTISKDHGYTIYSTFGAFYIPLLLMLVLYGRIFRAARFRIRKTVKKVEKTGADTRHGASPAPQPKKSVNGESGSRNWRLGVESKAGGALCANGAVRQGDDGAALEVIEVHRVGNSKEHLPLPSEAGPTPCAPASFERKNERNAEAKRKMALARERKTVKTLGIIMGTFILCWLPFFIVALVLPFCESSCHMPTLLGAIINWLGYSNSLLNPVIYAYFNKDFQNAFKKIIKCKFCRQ

Biological target: 5-HT1A receptor (Homo sapiens, UniProt P08908)
Conditions: 5-HT1A transfected cells, co-incubated with 5-HT, 0.5 μM FSK

- effect on 5-HT dose-response curve, CRE-luc: rightward parallel shift
SMILES: CSc1ccc2c(c1)C(N1CCN(C)CC1)Cc1ccccc1S2 (stereo not shown) [Methiothepin]
